Data taken from publication PMC4594013 (Frontiers in Pharmacology, 2015).

Columns and labels:
[1] = molecular target: T1, OAT2-tv1 (Homo sapiens, UniProt Q9Y694); assay: Inhibition of [3H]penciclovir uptake into CHO-OAT2-tv1 cells; assay type: cell-based; conditions: test compound 1 mM, [3H]penciclovir ∼30 nM, 5 min
T1 sequence (Q9Y694 1-546 isoform Q9Y694-2): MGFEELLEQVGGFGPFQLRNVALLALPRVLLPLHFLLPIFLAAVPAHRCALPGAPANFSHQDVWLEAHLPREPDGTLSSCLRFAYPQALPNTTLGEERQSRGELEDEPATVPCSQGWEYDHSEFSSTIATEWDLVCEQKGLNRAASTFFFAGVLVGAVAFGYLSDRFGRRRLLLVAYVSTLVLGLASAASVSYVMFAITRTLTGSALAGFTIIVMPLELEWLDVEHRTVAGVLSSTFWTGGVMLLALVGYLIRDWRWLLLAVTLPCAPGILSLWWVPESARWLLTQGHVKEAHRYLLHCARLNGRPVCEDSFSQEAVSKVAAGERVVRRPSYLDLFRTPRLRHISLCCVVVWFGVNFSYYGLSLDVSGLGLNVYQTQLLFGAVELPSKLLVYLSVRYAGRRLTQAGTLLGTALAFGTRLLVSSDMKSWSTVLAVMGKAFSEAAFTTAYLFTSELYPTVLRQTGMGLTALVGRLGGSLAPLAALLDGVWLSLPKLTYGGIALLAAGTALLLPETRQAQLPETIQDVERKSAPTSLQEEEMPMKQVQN
Method: All experiments examining cellular radiolabeled compound uptake were conducted using cells grown to confluence in 24-well flat bottom plates. The transport solution consisted of WB (room temperature) containing radiolabeled compound and the uptake period for all experiments was at an initial rate time point of 5 min. [^3H]Penciclovir served as the probe OAT2 substrate. We also examined the uptake of [^3H]para-aminohippurate, [^3H]estrone-3-sulfate, [^14C]glutarate, [^14C]succinate, [^3H]paclitaxel, and [^3H]dehydroepiandrosterone sulfate by OAT2 since published studies indicate that they are substrates of the transport protein ([Sun et al., 2001]; [Kobayashi et al., 2005a]). […] For all cellular uptake experiments, the medium was aspirated and the cells were rinsed once with WB (0.3 ml). Following the uptake period, cells were washed three times with ice-cold WB (0.5 ml each wash). After aspirating the final wash the cells were lysed in 0.5 N NaOH/1% SDS (0.4 ml) for ∼30 min on an orbital shaker. 1 N HCl (0.2 ml) was then added to neutralize the NaOH, and the cell lysates (0.5 ml) were transferred to scintillation vials containing liquid scintillation cocktail (CytoScint ES, MP Biomedicals). Cellular radioactivity content was determined with a Beckman LS6500 liquid scintillation counter. Protein content was determined using the bicinchoninic acid method. […]

[2] = tested on: OAT2 (sequence not given); conditions: expressed in S2 cells, ref Takeda et al., 2002; cited from earlier work

Row | Molecule | cis-inhibition of penciclovir uptake [1] | transport by OAT2 [2]
1 | α-ketoglutarate | none of the Kreb’s cycle intermediates tested, including succinate and fumarate, cis-inhibited penciclovir uptake | 
2 | Nc1nc(O)c2ncn(COC(CO)CO)c2n1 [ganciclovir] |  | failed to transport
